Experimental findings from PMC7215652, “An Affibody Molecule Is Actively Transported into the Cerebrospinal Fluid via Binding to the Transferrin Receptor” (International Journal of Molecular Sciences, 2020) are described below.

This series concerns the molecule itself. Put plainly: SDS-PAGE with and without DTT; DTT-treated and non-treated recombinant TfR compared on SDS-PAGE to assess its dimeric status.

B1: recombinant his-tagged mouse TfR (extracellular domain of the mouse transferrin receptor) (receptor)
chain: not shown
notes: mouse transferrin receptor, recombinant extracellular domain that starts at Cys 89; also called mTfR; source: bought: Sino Biological Inc
For B1, the binding result is reported as “binds”.
